Ab-14 light chain CDR variants: yeast mating affinities

From the AlphaSeq antibody data of Engelhart et al. 2022 (doi:10.1038/s41597-022-01779-4), copy in the FLAb collection.

The target is the same throughout: PDVDLGDISGINAS, from the HR2 region of SARS-CoV-2 spike.

Ab-14 is the parent antibody, in scFv form: VH, then three GGGGS repeats, then VL. The heavy chain is unchanged in all variants.
VH: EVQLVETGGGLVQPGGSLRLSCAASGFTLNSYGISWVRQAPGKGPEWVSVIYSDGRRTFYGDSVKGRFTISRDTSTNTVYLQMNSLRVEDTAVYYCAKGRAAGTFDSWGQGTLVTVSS
VL: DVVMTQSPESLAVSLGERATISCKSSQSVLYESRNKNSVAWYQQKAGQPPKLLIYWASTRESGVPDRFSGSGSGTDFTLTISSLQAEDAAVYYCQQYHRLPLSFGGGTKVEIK

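The parent was found by panning a naive human phage display library on the peptide. AAYL50 was designed without a model: most single CDR substitutions and a random sample of double and triple ones. Affinity was read by AlphaSeq, a pooled yeast mating assay with surface-displayed partners. After mating in shaken culture at 30 °C for 16 h, diploids were selected and their barcode pairs sequenced. Scores were corrected for input abundance and mapped to Kd with protein pairs of known affinity run in the same pool. The assay was run in three technical replicates.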

Substitutions are numbered in sequence along the VL above, starting at 1 (not Kabat). Affinities are written as log10 Kd with Kd in nM; a lower number is a better binder. A mean of the replicates is given; it leaves out those without a signal. An entry "nd" has no value in the source: the pair was not observed among the diploids in that replicate. This suggests poor binding but is not conclusive.

| # | changes | log10 Kd (nM) by replicate | mean, log10 nM | empty controls |
|---|---|---|---|---|
| 1 | N35A R60G H98I | nd / nd / nd | nd | 0 of 9 |
| 2 | S25D S38W H98T | 3.40 / nd / 3.53 | 3.46 | 0 of 9 |
| 3 | V39I S62D L102F | 0.65 / 0.77 / 0.78 | 0.73 | 5 of 9 (3.75) |
| 4 | L30Q V39W Q95S | nd / 4.04 / nd | 4.04 | 5 of 9 (3.94) |
| 5 | K24N L30A Q96D | 1.57 / 1.66 / 1.85 | 1.69 | 4 of 9 (4.30) |
| 6 | S28V A40G S62C | nd / 3.88 / nd | 3.88 | 2 of 9 (4.71) |
| 7 | R34Y K36V T59Y | 1.18 / 1.50 / 1.31 | 1.33 | 0 of 9 |
| 8 | K24I T59K P101C | 2.41 / 2.09 / 2.32 | 2.27 | 4 of 9 (3.83) |
| 9 | S26C S38W R60V | nd / 5.25 / nd | 5.25 | 2 of 9 (4.24) |
| 10 | E32Q S33F R34N | 1.52 / 1.44 / 1.64 | 1.54 | 1 of 9 (4.79) |
| 11 | V29A T59K Y97K | nd / nd / nd | nd | 1 of 9 (3.87) |
| 12 | A40S S58W | nd / nd / 4.19 | 4.19 | 1 of 9 (2.94) |
| 13 | E32V N35T V39Y | 4.47 / nd / nd | 4.47 | 1 of 9 (3.04) |
| 14 | K24E R60F Y97V | 5.61 / 3.38 / 3.85 | 4.28 | 2 of 9 (4.10) |
| 15 | R34K N37F S38T | nd / nd / nd | nd | 0 of 9 |
| 16 | L30T Y31N A40S | 2.25 / 2.66 / 2.52 | 2.48 | 3 of 9 (4.25) |
| 17 | S25G Y97P P101H | nd / 3.90 / 4.02 | 3.96 | 2 of 9 (4.80) |
| 18 | S26K R34Y R99N | 1.14 / 1.30 / 1.25 | 1.23 | 4 of 9 (4.18) |
| 19 | S33Y T59K S103G | 2.15 / 1.70 / 2.29 | 2.05 | 4 of 9 (4.21) |
| 20 | S28L R34C H98L | 1.48 / 1.68 / 1.27 | 1.47 | 0 of 9 |
| 21 | S33G E61Y Y97K | 4.85 / 4.96 / nd | 4.91 | 5 of 9 (3.95) |
| 22 | A40F Q95H H98S | 4.42 / 3.71 / nd | 4.06 | 0 of 9 |
| 23 | Q27E K36N | 3.49 / 2.58 / 3.57 | 3.21 | 3 of 9 (4.64) |
| 24 | R60F Q96H H98G | nd / nd / nd | nd | 0 of 9 |
| 25 | A57L P101H L102I | nd / nd / nd | nd | 1 of 9 (4.76) |
| 26 | S28F R34G L100P | nd / nd / 2.12 | 2.12 | 0 of 9 |
| 27 | A40F E61S P101K | nd / nd / 4.10 | 4.10 | 0 of 9 |
| 28 | S26K N37M Y97H | nd / nd / nd | nd | 1 of 9 (5.33) |
| 29 | S25P V29A H98A | 2.04 / 1.83 / 2.17 | 2.01 | 1 of 9 (4.27) |
| 30 | S25F Y97R L100Y | 4.94 / 5.21 / nd | 5.08 | 6 of 9 (4.23) |
| 31 | T59M H98G | 4.85 / 3.27 / 5.74 | 4.62 | 1 of 9 (3.49) |
| 32 | S26N E32D V39G | 6.34 / nd / 4.64 | 5.49 | 2 of 9 (4.59) |
| 33 | R60E H98E L102Y | nd / 3.98 / 5.91 | 4.95 | 5 of 9 (4.30) |
| 34 | R34S W56Y | 0.27 / 0.48 / 0.23 | 0.33 | 3 of 9 (4.04) |
| 35 | E32N A57V L100C | nd / nd / nd | nd | 1 of 9 (3.70) |
| 36 | S28Q A57R | 3.29 / 3.88 / 3.77 | 3.65 | 0 of 9 |
| 37 | S28R K36D S58N | 1.02 / 1.58 / 1.50 | 1.37 | 0 of 9 |
| 38 | N37M R60S L102I | nd / nd / nd | nd | 1 of 9 (3.91) |
| 39 | S28E E32G V39H | 5.42 / nd / nd | 5.42 | 5 of 9 (4.15) |
| 40 | S25W E32A L102A | nd / 5.10 / nd | 5.10 | 6 of 9 (4.43) |
| 41 | Q27C H98E S103C | 3.61 / nd / nd | 3.61 | 2 of 9 (3.68) |
| 42 | N37V P101D S103N | 4.81 / nd / 3.27 | 4.04 | 2 of 9 (4.18) |
| 43 | S33D N35H E61F | 0.65 / 0.85 / 0.93 | 0.81 | 0 of 9 |
| 44 | L30G S62T L100A | nd / nd / nd | nd | 0 of 9 |
| 45 | S26Q E32C P101T | nd / nd / nd | nd | 2 of 9 (3.86) |
| 46 | V29F W56M Y97Q | 0.13 / 0.38 / 0.26 | 0.26 | 3 of 9 (5.36) |
| 47 | N37I V39G E61P | nd / nd / nd | nd | 0 of 9 |
| 48 | S38R T59C P101F | nd / nd / nd | nd | 0 of 9 |
| 49 | S26T P101T S103L | 2.72 / 2.69 / 3.23 | 2.88 | 5 of 9 (4.52) |
| 50 | K24D S62V P101R | nd / nd / 5.70 | 5.70 | 2 of 9 (4.31) |

Background: pairings of library AAYL50 with three empty control strains gave a value in 18% of cases (median 4.19, 5th percentile 2.99). Values in that range, when seen in few replicates, are hard to tell from nonspecific mating. The control count says in how many pairings with the empty strains this scFv gave a signal, with their mean in brackets.